The subject of assay [1] is bone marrow hematopoietic stem cells. In words: Myeloid skewing in the bone marrow of EAE mice, flow cytometry. The conditions noted are these: Day 14 and Day 28, Figure 4. The method, then: In this experiment, flow cytometry was used to investigate the myeloid skewing in the bone marrow of mice in each group of the model on days 14 and 28 of the experiment after treatment with compound DC521022.
Preparation of brain tissue single-cell suspension: mice were deeply anesthetized by intraperitoneal injection of tribromoethanol and properly fixed. The left femur of the mice was taken and soaked in ice-cold PBS for later use. The bone marrow of femur of mice was blown into a 15 mL centrifuge tube, centrifuged at 350 G for 5 min, and the supernatant was discarded. 1 mL of erythrocyte lysis buffer was added, and lysis was carried out for 6 min. Then lysis was terminated by adding 5 mL of PBS, and it was centrifuged at 350 G for 5 min, and then resuspended in 1 mL of PBS. Cells were counted.
The following channels were selected for the color matching of fluorescent dyes used in flow cytometry antibody staining: fluorescein isothiocyanate (FITC), Phycoerythrin (PE), PerCP-Cy5.5, allophycocyanin (APC), allophycocyanin-anthocyanin 7 (APC-Cy7), and phycoerythrin-anthocyanin 7 (PE-Cy7). […]
In this experiment, flow cytometry antibody staining was performed using blank control, single positive compensation, isotype control, and fluorescence minus one (FMO) control. […]
(In flow cytometry, cells or beads pass a laser one at a time.)

Assay [2] relates to Autoimmune encephalomyelitis (EAE). In words: Onset of multiple sclerosis in vivo: daily clinical score and weight in the EAE model. The conditions noted are these: 50 mg/kg daily, intraperitoneal injection or gavage, vs saline control, Figure 1. As to the method: Autoimmune encephalomyelitis (EAE) was an animal model of multiple sclerosis. In this experiment, behavioral scores and weight assessments were performed on two groups of mice daily until the end of the experiment to investigate the effect of compound DC521022 on the onset of multiple sclerosis.
Experimental animals: C57/BL6 mice, 10 weeks old, female, randomly divided into experimental group and control group: model control group (EAE + Vehicle): administered saline after modeling; model administration group (EAE + DC521022): administered DC521022 suspension after modeling. […]
Animal experiment method: mouse polypeptide antigen MOG35-55 (purity>95%) was repeatedly mixed with complete Freund's adjuvant containing inactivated Mycobacterium tuberculosis in a syringe for emulsification to form a water in oil state. […] After the animal experiment was completed, the mice's condition was observed daily, and clinical scoring was performed and recorded. […]
Experimental method: after modeling, DC521022 suspension was immediately administered via intraperitoneal injection and gavage on the day of immunization and the first day of disease onset, respectively. […] Administration was repeated daily, and the mice's condition was observed and clinically scored until Day 14 and Day 28 after modeling. […]

As to `Cc1nnc(C(C)C)n1[C@@H]1C[C@H]2CC[C@@H](C1)N2CC[C@H](NC(=O)C1CCC(F)(F)CC1)c1ccsc1`, the “proportion and quantity of bone marrow hematopoietic stem cells” value in assay [1] is “significantly reduced”. Also, the weight of mice entry in assay [2] is recorded as “increased”. Besides, the clinical scores entry in assay [2] (EAE mice, score 0-5) is given as “lower”.

The record behind these values is patent publication EP4825379A1, “USE OF 1-(3-AMINOPROPYL) SUBSTITUTED CYCLIC AMINE COMPOUND” (dated 2026).
